This note sets out measurements from PMC7027018 (BMC Chemistry, 2020).

Chains of the proteins cited; added tags and fusions are not shown.
UniProt P27338, whole entry: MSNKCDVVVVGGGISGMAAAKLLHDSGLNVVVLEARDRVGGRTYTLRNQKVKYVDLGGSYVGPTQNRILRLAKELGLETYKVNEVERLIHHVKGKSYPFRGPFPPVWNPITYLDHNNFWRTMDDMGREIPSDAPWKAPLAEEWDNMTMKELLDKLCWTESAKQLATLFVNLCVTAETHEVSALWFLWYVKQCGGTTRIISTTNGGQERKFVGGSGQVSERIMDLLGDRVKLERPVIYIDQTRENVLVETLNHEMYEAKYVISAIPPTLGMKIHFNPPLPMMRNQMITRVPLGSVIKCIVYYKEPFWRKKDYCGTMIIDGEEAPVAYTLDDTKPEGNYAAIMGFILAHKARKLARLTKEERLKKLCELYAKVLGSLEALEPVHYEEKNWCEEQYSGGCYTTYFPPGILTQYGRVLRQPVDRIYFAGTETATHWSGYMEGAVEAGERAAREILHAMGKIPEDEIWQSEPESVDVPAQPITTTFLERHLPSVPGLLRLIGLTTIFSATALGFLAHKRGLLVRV

The experiment deals with T1, hMAO-B (Homo sapiens, UniProt P27338).
T1 construct: purchased Sigma-Aldrich; host or cells: insect cells (BTI-TN-5B14), recombinant baculovirus
Nature of the experiment: hMAO-B inhibitory activity, Amplex Red continuous fluorometric assay. The note with it: IC50 (MAO-A)/IC50 (MAO-B). The experiment is classed as biochemical. As to the method:
The synthesized derivatives were screened for the hMAO-A and hMAO-B inhibitory activities by using an extremely sensitive continuous fluorometric assay containing Amplex Red (10-acetyl-3, 7-dihydroxyphenoxazine) reagent. The enzymatic H2O2 was measured with and without extracts or standards.
Unless otherwise noted, the analytical grade chemicals required for synthesis and antioxidant activity procured from Sigma Aldrich, Merck, Hi-media Laboratories. The analytical assessment of the synthesized derivatives for hMAO inhibition was measured by their effects on the generation of hydrogen peroxide (H2O2) by p-tyramine (a general substrate for both MAO isoforms), utilizing the Amplex Red MAO assay kit (Sigma USA) and microsomal MAO enzymes extracted by insect cells (BTI-TN-5B14) expressed on recombinant baculovirus containing cDNA probes for MAO isoforms (Sigma-Aldrich USA) were used as source for the two microsomal MAO isoforms. […] Melting points were recorded on Sonar melting point apparatus in open capillary tubes. The nuclear magnetic resonance (NMR) spectra 1H NMR and ^13C NMR spectra were determined in DMSO and deuterated CDCl3 respectively on a spectrometer (Model: Bruker Avance II 400 NMR). […]

Regarding `O=C(/C=C/C=C/c1ccc2c(c1)OCO2)N1CCOCC1` [Compound 9], the Selectivity index came out at 0.312.
